Drawing on PubChem BioAssay AID2098 (Broad Institute, 2009), this text covers activity change, negative = inhibition for 59 molecules.

The structures appear in SMILES notation. This is a selection; strong and weak results do not stand in their true shares. Activity calls are given as the source filed them.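 The calls were made as follows: active = more than half of replicate wells show activity change below -50%, luminescence cut by over half; inconclusive = some wells, but at most half, below -50%; inactive = no replicate well below -50%.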

The assay in a line: blocking HSF1-driven luciferase expression – cell-based, NIH3T3, luminescence, primary screen (AID 2098).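 Also: luciferase reports HSF-1 transcriptional activity via heat shock element; 0% = median of DMSO wells and -100% = zero luminescence signal.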 To be noted: NIH3T3-HGL HSE-luciferase, MG132-induced, luminescence 8 h; hits give low values; screened at 7.5 µM (by protocol).
In the case of `CCOC(=O)N1CCC(Nc2ccc(OC)cc2)CC1`, the activity change, negative = inhibition was inactive: -3.25%.

For `O=C(OC1CN2CCC1CC2)C1c2ccccc2Oc2ccccc21` (centres undefined), the activity change, negative = inhibition was inactive: 10.7%. Turning to `N#CC1(Nc2ccccc2)CCN(Cc2ccccc2)CC1`, the activity change, negative = inhibition is inactive: -10.2%. In the case of `O=C(NCC1(N2CCOCC2)CCCCC1)c1cc2ccccc2o1` it was inactive: 3.41%. With `Cc1cc(C)cc(N(C(=O)c2ccccc2)C2CCN(C(=O)OC(C)(C)C)CC2)c1` the figure was inactive: 0.91%; with `O=C(NCC1(N2CCCCC2)CCCCC1)c1ccc(Cl)nc1`, inactive: -4.6%; with `CSc1ccccc1C(=O)NCC1(N2CCCCC2)CCCCC1`, inactive: -6.51%.

For the molecule `O=C(NCC1(N2CCCCC2)CCCCC1)c1cccs1`, the activity change, negative = inhibition was inactive: -1.47%. With `O=C(NCC1(N2CCCCC2)CCCCC1)c1ccc(=O)[nH]c1` the figure was inactive: -6.85%; with `COc1ccc(C(=O)NCC2(N3CCCCC3)CCCCC2)c(OC)c1OC`, inactive: -10.3%; with `CC(C)(C)OC(=O)N1CCC(N(C(=O)c2ccccc2)c2ccc(F)cc2)CC1`, inactive: -4.33%. In the case of `COc1ccc(C(=O)NCC2(N3CCCCC3)CCCCC2)cc1` it was inactive: -6.51%. Regarding `Cc1ccc(OCC(C)C)c(CN(CCCl)CCCl)c1`, the activity change, negative = inhibition is inactive: 3.82%. In the case of `COc1cc(C(=O)NCC2(N(C)C)CCCCC2)ccc1OC(F)F` it was inactive: -9.84%. With `CCOC(=O)N1CCC(Nc2cccc(C)c2)CC1` the figure was inactive: 9.45%; with `COc1ccc(NC2CCN(CCc3ccccc3)CC2)c(OC)c1`, inactive: -3.59%; with `CCOC(=O)N1CCC(Nc2ccc(F)cc2)CC1`, inactive: 10.7%.

Turning to `O=C(NCC1(N2CCCCC2)CCCCC1)c1ccc(F)cc1`, the activity change, negative = inhibition is inactive: -3.4%. In the case of `CCOc1ccc(C)cc1CN(CCCl)CCCl` it was inactive: 4.33%; in that of `CN1CCN(CCOC(=O)C(O)(c2ccccc2)c2ccccc2)CC1`, inactive: 3.36%; in that of `COc1ccc(NC2CCN(C(=O)OC(C)(C)C)CC2)cc1`, inactive: 1.12%.

For `COc1cc(C(=O)NCC2(N3CCCCC3)CCCCC2)ccc1OC(F)F`, the activity change, negative = inhibition was inactive: -2.57%. In the case of `O=C(NCC1(N2CCOCC2)CCCCC1)c1cc(=O)[nH]c2ccccc12` it was inactive: -3.38%; in that of `O=C(NCC1(N2CCCCC2)CCCCC1)c1cccc(C(F)(F)F)c1`, inactive: -1.87%; in that of `O=C(NCC1(N2CCCCC2)CCCCC1)c1cccc([N+](=O)[O-])c1`, inactive: 2.99%. In the case of `N#CC1(Nc2ccccc2)CCN(CCc2ccccc2)CC1` it was inactive: -1.64%. In the case of `CCN1CCC(Nc2ccc(Cl)cc2)CC1`, the activity change, negative = inhibition was inactive: -4.59%.

Take `O=C(NCC1(N2CCCCC2)CCCCC1)c1ccc(OC(F)F)cc1`: the activity change, negative = inhibition was inactive: -3.6%. `CCCOc1ccc(C(=O)NCC2(N(C)C)CCCCC2)cc1OC`: the activity change, negative = inhibition was inactive: -5.55%. Regarding `CN1CCC(Nc2cccc(F)c2)CC1`, the activity change, negative = inhibition is inactive: -2.42%. For `COc1cc(OC)c(C(=O)NCC2(N(C)C)CCCCC2)cc1OC`, the activity change, negative = inhibition was inactive: 4.67%. In the case of `CN(C)c1cccc(C(=O)NCC2(N3CCCCC3)CCCCC2)c1` it was inactive: -11.5%. For `COc1ccc(CN(CCCl)CCCl)cc1Cl`, the activity change, negative = inhibition is inactive: 4.48%.

As for `CC(C)c1ccc(NC2CCN(C(=O)OC(C)(C)C)CC2)cc1`, the activity change, negative = inhibition was inactive: -1.65%.

Consider `O=C(OC1CN2CCC1CC2)C1c2ccccc2C=Cc2ccccc21` (centres undefined), for which the activity change, negative = inhibition is inactive: -6.21%. In the case of `CCc1cc(C(=O)NCC2(N3CCCCC3)CCCCC2)sc1C` it was inactive: -2.66%; in that of `N/C(=N\O)c1c(N)no[n+]1[O-]`, inactive: -10.1%; in that of `CCOC(=O)N1CCC(Nc2ccc(C)cc2)CC1`, inactive: -1.32%. With `COc1ccc(C(=O)NCC2(N3CCOCC3)CCCCC2)cc1OC` the figure was inactive: -6.34%; with `CCCN1CCC(Nc2cc(OC)cc(OC)c2)CC1`, inactive: -7.12%. With `c1ccc(CN2CCC(Nc3ccccc3)CC2)cc1` the figure was inactive: -5.29%. Turning to `CN(C)C1(CNC(=O)c2cccc(C#N)c2)CCCCC1`, the activity change, negative = inhibition is inactive: -3.02%. Regarding `CC(C)(C)OC(=O)N1CCC(N(C(=O)c2ccccc2)c2ccc(Cl)cc2)CC1`, the activity change, negative = inhibition is inactive: -2.14%.

For the molecule `N#Cc1ccc(C(=O)NCC2(N3CCCCC3)CCCCC2)cc1`, the activity change, negative = inhibition was inactive: -5.55%. Regarding `CN(C)c1ccc(C(=O)NCC2(N3CCCCC3)CCCCC2)cc1`, the activity change, negative = inhibition was inactive: -3.38%. With `CCN1CCC(Nc2cccc(F)c2)CC1` the figure was inactive: -1.72%; with `Fc1ccccc1NC1CCN(Cc2ccccc2)CC1`, inactive: -7.33%.

For `Cc1ccc(C(=O)NCC2(N3CCCCC3)CCCCC2)o1`, the activity change, negative = inhibition was inactive: -6.65%.

Take `COc1cc(OC)cc(C(=O)NCC2(N3CCCCC3)CCCCC2)c1`: the activity change, negative = inhibition is inactive: 4.39%. With `CCCOc1ccc(C)cc1CN(CCCl)CCCl`, the activity change, negative = inhibition was inactive: 3.38%. In the case of `CN1CCC(Nc2ccc(Cl)cc2)CC1`, the activity change, negative = inhibition is inactive: -3.57%. In the case of `CCC(CO)(C(=O)OC1CN2CCC1CC2)c1ccccc1` (centres undefined) it was inactive: -2.89%. With `COc1cc(OC)cc(C(=O)NCC2(N3CCOCC3)CCCCC2)c1` the figure was inactive: -3.22%.

In the case of `COc1cccc(C(=O)N(c2cc(C)cc(C)c2)C2CCN(C(=O)OC(C)(C)C)CC2)c1`, the activity change, negative = inhibition was inactive: -0.224%. In the case of `CCCOc1ccc(C(=O)NCC2(N(C)C)CCCCC2)cc1` it was inactive: 7.68%; in that of `O=C(O)C1(Nc2ccccc2)CCN(Cc2ccccc2)CC1`, inactive: -8.58%; in that of `CC(C)(C)OC(=O)N1CCC(Nc2ccccc2)CC1`, inactive: -3.65%.

Take `CN1CCC(Nc2ccc(F)c(Cl)c2)CC1`: the activity change, negative = inhibition was inactive: 0.707%. In the case of `CCOc1ncccc1C(=O)NCC1(N2CCOCC2)CCCCC1` it was inactive: -1.93%.
